Source: patent US7994185B2, “Benzene sulfonamide thiazole and oxazole compounds” (Glaxo Smith Kline LLC, priority 2008, dated 2011)
Read-outs that look alike come from different tables or passages of the source.

What was measured:
[1] = system: Human melanoma cancer cells (SK-MEL-28); experiment: Cell growth inhibition assay (CellTiter-Glo), SK-MEL-28; format: cell-based
[2] = system: Human colon tumor cells (Colo205); experiment: Cell growth inhibition assay (CellTiter-Glo), Colo205; format: cell-based
Experimental: Human colon tumor cells (Colo205) were cultured in RPMI (Mediatech 50-020-PB) containing 10% FBS and 1% penicillin-streptomycin.
The next day, compounds were diluted as follow: For 96-well assays, 13.5 μL of compound in DMSO were diluted using nine (9) serial 1:3 dilutions of 4.5 μL in 9 μL of DMSO. Medium (270 μL/well of RPMI with 10% FBS and 1% penicillin-streptomycin) was added to the plates. Aliquots (7 μL) were added to cells in the final assay giving a final DMSO concentration of 0.2%. For 384-well assays, 15 μL of compound in DMSO were diluted using nine (9) serial 1:3 dilutions of 5 μL in 10 μL of DMSO, followed by a further dilution of 5 μL of compound with 95 μL of medium, of which 2 μL were added to cells in the final assay giving a final DMSO concentration of 0.2%. Cells were incubated at 37° C., 5% CO2 for 3 days.
Total ATP was measured (as a surrogate estimate of cell number) using CellTiter-Glo® reagent (Promega G7571). Briefly, plates were removed from the incubator and allowed to equilibrate to room temperature for 30 minutes. […] Plates were incubated without shaking for a further 30 minutes and read on an LJL Analyst GT reader in luminometer mode with an integration time of 0.5 seconds per well. Percent inhibition of cell growth was calculated relative to DMSO vehicle-treated control wells.

Measured: IC50

CC(C)(C)c1nc(-c2cccc(NS(=O)(=O)c3cc(F)ccc3F)c2F)c(-c2ccnc(N)n2)s1 [Example 57, N-{3-[5-(2-Amino-4-pyrimidinyl)-2-(1,1-dimethylethyl)-1,3-thiazol-4-yl]-2-fluorophenyl}-2,5-difluorobenzenesulfonamide]
< 100 nM: [1]; SK-MEL-28, 72 h, Table 3a, 3 days incubation, read-out: Activity in SK-MEL-28 Tumor Cells | [1]; SK-MEL-28, Table 3b, later runs, average for the one or more runs, categorized, read-out: IC50 for SK-MEL-28 | [2]; COLO 205, 72 h, Table 2a, 3 days incubation, read-out: Activity in Colo205 Tumor Cells | [2]; COLO 205, Table 2b, later runs, average for the one or more runs, categorized, read-out: IC50 for Colo205
